Literature values as cited in patent US6403576B1, “Antifungal and antiparasitic compounds” (priority 1998, dated 2002).
pIC50: −log10 of the molar value.

The chains behind the UniProt entries cited, without tags or fusion partners.
UniProt Q14534, whole entry: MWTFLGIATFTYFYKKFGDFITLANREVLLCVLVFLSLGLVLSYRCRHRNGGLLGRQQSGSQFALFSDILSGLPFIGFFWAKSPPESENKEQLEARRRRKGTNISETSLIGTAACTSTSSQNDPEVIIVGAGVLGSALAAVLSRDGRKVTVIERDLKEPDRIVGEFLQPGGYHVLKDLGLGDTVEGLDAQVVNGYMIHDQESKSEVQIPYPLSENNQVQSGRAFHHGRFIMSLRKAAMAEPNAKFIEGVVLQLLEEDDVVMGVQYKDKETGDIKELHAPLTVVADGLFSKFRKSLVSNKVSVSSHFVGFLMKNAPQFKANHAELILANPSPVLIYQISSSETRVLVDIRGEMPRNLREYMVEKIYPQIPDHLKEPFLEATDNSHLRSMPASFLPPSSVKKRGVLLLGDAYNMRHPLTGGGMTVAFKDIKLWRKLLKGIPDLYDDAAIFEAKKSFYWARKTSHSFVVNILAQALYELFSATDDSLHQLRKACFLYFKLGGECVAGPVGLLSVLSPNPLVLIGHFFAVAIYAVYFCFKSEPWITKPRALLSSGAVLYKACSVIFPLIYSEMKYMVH

Biological target: Squalene Oxidase (Homo sapiens, UniProt Q14534)
Conditions: Abe et al, 1994; cited from earlier work

In the case of `CN(C/C=C/C#CC(C)(C)C)Cc1cccc2c(Cl)csc12`, the pIC50 is given as 7.96.
